The target of assay [1] is T1, STAT6 (Homo sapiens, UniProt P42226). The assay can be described thus: STAT6 degradation in human PBMC. Format: cell-based. Particulars: FIG. 1 (A).
The target in assay [2] is T1, STAT6. The assay can be described thus: Selectivity of STAT6 degradation in human PBMC. Format: cell-based. Particulars: FIG. 1 (B).
The next assay relates to IL-4 and IL-13 TARC. The assay can be described thus: IL-4 and IL-13 TARC inhibition in human PBMC. Format: cell-based. The note with it: versus dupilumab (literature data), FIG. 2 (A).
In a further assay the test system is IL-4 and IL-13 CD23. Kind of assay: IL-4 and IL-13 CD23 inhibition in human PBMC. It counts as cell-based. Particulars: versus dupilumab (literature data), FIG. 2 (B).
The target in the next assay is STAT6-HiBiT (Homo sapiens, UniProt P42226). Kind of assay: STAT6 HiBiT degradation in A549 (STAT6-HiBiT) cells. (In general: With HiBiT, luminescence reflects the tagged protein that the partner subunit can reach.)

Sequences of proteins named here, by UniProt entry; tags and fusion partners are left off.
UniProt P42226, whole entry: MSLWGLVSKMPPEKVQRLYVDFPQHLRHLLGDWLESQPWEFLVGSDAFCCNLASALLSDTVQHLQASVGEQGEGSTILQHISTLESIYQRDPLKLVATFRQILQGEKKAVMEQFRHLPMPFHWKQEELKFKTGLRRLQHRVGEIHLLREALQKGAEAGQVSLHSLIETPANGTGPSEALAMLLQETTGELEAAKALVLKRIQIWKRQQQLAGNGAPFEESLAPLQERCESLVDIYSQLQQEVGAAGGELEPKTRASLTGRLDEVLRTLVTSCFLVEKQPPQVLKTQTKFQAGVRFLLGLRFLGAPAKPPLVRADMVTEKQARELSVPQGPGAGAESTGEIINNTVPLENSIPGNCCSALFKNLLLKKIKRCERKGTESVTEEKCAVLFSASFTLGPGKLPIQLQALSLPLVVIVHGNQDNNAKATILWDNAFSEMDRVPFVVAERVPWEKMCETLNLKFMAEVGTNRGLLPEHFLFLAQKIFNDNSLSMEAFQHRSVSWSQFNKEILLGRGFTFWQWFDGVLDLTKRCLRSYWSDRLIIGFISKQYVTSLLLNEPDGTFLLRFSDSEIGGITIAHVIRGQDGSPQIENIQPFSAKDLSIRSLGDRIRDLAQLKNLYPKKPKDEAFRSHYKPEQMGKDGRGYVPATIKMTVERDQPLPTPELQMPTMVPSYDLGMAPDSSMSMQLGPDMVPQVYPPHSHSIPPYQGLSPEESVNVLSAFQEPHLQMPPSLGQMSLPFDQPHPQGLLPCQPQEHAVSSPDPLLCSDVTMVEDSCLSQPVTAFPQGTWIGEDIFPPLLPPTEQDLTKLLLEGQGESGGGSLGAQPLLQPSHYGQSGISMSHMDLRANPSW

Consider `CN(C)C(=O)c1cc2c(-c3ccc(N4CCN(CCCc5ccc6c(c5)n(C)c(=O)n6C5CCC(=O)NC5=O)CC4)cc3)cc(C3=CCCN(C(=O)CCn4ccnn4)C3)cc2[nH]1` (centres unmarked), for which, at STAT6 [1], the STAT6 degradation result was “rapid and highly potent”. Further, at STAT6 [2], the “selectivity of STAT6 degradation” value is recorded as “selective”. For the same compound, the “IL-4 and IL-13 TARC inhibition potency” value in the assay on IL-4 and IL-13 TARC was “superior”. For the same compound, in the assay on IL-4 and IL-13 CD23, the “IL-4 and IL-13 CD23 inhibition potency” value was “superior”. Besides, at STAT6-HiBiT, the “STAT6 HiBiT degradation Dmax % 24 h” value is “A (A (>90%))”.

For the origin of these results see patent US20260124309A1, “STAT6 DEGRADERS AND USES THEREOF” (Kymera Therapeutics, Inc., priority 2023, published 2026).
